Literature values in patent publication US20220089765A1, “CD31 COMPETITORS AND USES THEREOF” (ENCEFA, priority 2019, published 2022).

Settings: in humans; cited from earlier work

## Aducanumab: monoclonal antibody whose brain/plasma ratio in humans is cited [reference compound]
  Brain/plasma ratio: 1.3%
